Source: patent US20040009189A1, “Antimutagenic effects of ganoderma lucidum spores” (priority 2002, published 2004)

Tested on: mice bone marrow cell chromosomal aberration induced by cyclophosphamide
Settings: CP 50 mg/kg alone (positive group 4); F; 500 cells
Excerpt: The test used was the modified mice bone marrow cell micronucleus test as specified in “A Notice Concerning Issuance of the Revised Items of the ‘Health Food Functional Assessment Procedures and Testing Methods’,” a document from the Ministry of Public Health of the People's Republic of China, which is hereby incorporated by reference.
The mice were randomly divided by weight into 9 groups, 5 males and 5 females respectively per group. Animals in each group were given the following treatment:
The drug was prepared as a suspension of the required concentration in distilled water, and administered orally through tube at individual dosages of 0.2 mL/10 g of body weight. The negative control group was given distilled water of the equivalent volume through tube once a day for 30 days continuously. […] 4 hours before the mice were sacrificed they are given colchicine, and the bone marrow was extracted in order to prepare the chromosome samples in the routine way.
Samples from each group were observed. One hundred (100) metaphase cells per mouse were observed, and the chromosomal structures and the numbers of aberrations were recorded. Using SPSS for Windows 8.0 (t-test), a comparative analysis was made of the experimental data from the various dosage groups and the positive groups and tested to find out if there was any significant difference between the males and females within the group.

Question: `O=P1(N(CCCl)CCCl)NCCCO1` (stereo not shown) [CP, cyclophosphamide] was tested. Which “Cell Aberration Rate (%)” value did it give?
Answer: The value was 44.2%.
